How the values were obtained:
[1] = target: T1, human AT2R (Homo sapiens, UniProt P50052); assay: Competition radioligand binding (125I-Sar1-Ile8-AngII) in AT2R-transfected HEK-293 cells; conditions: read-out: Binding AT2R IC50
T1 construct: expressed in transfected cells
T1 sequence (P50052 1-363): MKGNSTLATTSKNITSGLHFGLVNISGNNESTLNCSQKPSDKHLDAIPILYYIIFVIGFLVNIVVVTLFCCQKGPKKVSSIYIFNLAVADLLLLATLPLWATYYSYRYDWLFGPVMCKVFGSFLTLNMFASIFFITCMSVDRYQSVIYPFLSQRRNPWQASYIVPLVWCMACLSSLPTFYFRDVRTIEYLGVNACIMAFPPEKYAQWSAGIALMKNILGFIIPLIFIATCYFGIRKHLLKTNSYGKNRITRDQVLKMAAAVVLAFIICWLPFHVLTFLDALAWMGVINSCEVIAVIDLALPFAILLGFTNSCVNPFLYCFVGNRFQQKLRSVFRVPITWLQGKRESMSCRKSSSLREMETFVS

[2] = target: T2, human AT1R (Homo sapiens, UniProt P30556); assay: Competition radioligand binding (125I-Sar1-Ile8-AngII) in AT1R-transfected HEK-293 cells; conditions: read-out: Binding AT1R IC50
T2 construct: expressed in transfected cells

[3] = In vitro plasma stability assay (rat plasma); type: in vitro ADME; conditions: for Plasma stability (t1/2): plasma from male spontaneously hypertensive rats (SHR)
Method: Proteolytic stability may be tested in a plasma stability assay used to assess the susceptibility of a peptide described herein to plasma proteases. Plasma stability may be tested using methods described herein. For example, a sample of rat plasma may be incubated with peptide of interest (final concentration was 1 mg/mL; plasma diluted by 10% with peptide dissolved in saline). Protease activity is then quenched in samples by the addition of acetonitrile, at selected time intervals. The amount of parent compound remaining at each time point can then be assayed on an Agilent 1100 MSD SL ion trap mass spectrometer. The peaks observed in the resulting chromatograms are integrated, compared to a standard curve, and cross-checked by mass and retention time (Jones et al 2011 Hypertension. 57: 570-576).
B) Proteolytic stability was tested in a plasma stability assay used to assess the susceptibility of Ang II peptides to plasma proteases. A sample of rat plasma was incubated with peptide of interest (final concentration was 1 mg/mL; plasma diluted by 10% with peptide dissolved in saline). Protease activity was quenched in samples by the addition of acetonitrile, at selected time intervals. The amount of parent compound remaining at each time point was then assayed on an Agilent 1100 MSD SL ion trap mass spectrometer. The peaks observed in the resulting chromatograms were integrated, compared to a standard curve, and cross-checked by mass and retention time (Jones et al 2011 Hypertension. 57: 570-576).

Row | Substance | IC50 [1] | IC50 [2] | time within which peptide was degraded in plasma ([3]; SHR plasma) | Plasma stability (t1/2) [3] | peptide remaining in plasma ([3]; after 24 hour incubation, SHR/rat plasma, listed as D-Arg^2-β-Pro^7-Ang III, 1440 min)
1 | Arg-Val-Tyr-Ile-His-β-Pro-Ala [βPro-Ala-8-Ang III] | 49.1 nM | > 10000 nM |  |  | 
2 | Arg-Val-Tyr-Ile-His-β-Pro-Phe [βPro-Ang III] |  | > 10000 nM | ≤ 2 h | 0.767 h | 
3 | Arg-Val-Tyr-Ile-His-β-Pro-Trp [βPro-Trβ-8-Ang III] | 0.236 nM | > 100000 nM |  | 2.78 h | 
4 | Asp-Arg-Val-Tyr-Ile-His-β-Pro-Ala [βPro-Ala-8-Ang II] |  | > 10000 nM |  |  | 
5 | Asp-Arg-Val-Tyr-Ile-His-β-Pro-Phe [βPro-Ang II] |  | 1000 nM |  |  | 
6 | D-Arg-Val-Tyr-Ile-His-β-Pro-Phe [D-Arg β-Pro-Ang III] | 0.324 nM | > 100000 nM |  | 24 h | Approximately 80%
7 | D-Arg-Val-Tyr-Ile-His-β-Pro-Trp [D-Arg-βPro-Trp-8-Ang III] | 2.82 nM | > 50000 nM |  | 30.83 h | 
8 | Nicotinamido-Arg-Val-Tyr-Ile-His-β-Pro-Trp [Nic-βPro-Trp-8-Ang III] | 0.19 nM | 2940 nM |  |  | 
9 | Tetrazole-CONH- Arg-Val-Tyr-Ile-His- β-Pro-Phe [Tet-βPro-Ang III] | 0.78 nM | > 50000 nM |  |  | 
10 | Tetrazole-CONH-Arg-Val-Tyr-Ile-His-β-Pro-Trp [Tet-βPro-Trp-8-Ang III] | 0.18 nM | > 50000 nM |  |  | 
11 | Val-Tyr-Ile-His-β-Pro-Phe [βPro-Ang IV] |  | > 10000 nM |  |  | 

From patent publication US11331368B2, “Angiotensin receptor agonists and uses thereof” (Monash University, priority 2017, dated 2022)
